# Earlier results, collected in US20110091574A1, “TREATMENT OF ADENOCARCINOMA EXPRESSING LKB1 WITH MTOR INHIBITOR IN COMBINATION WITH COX2 INHIBITOR” (Catholic Healthcare West, priority 2008, published 2011).
# Tested on: COX-2 and COX-1 enzymes
# Settings: cited from earlier work
smiles,measurement,value
Cc1onc(-c2ccccc2)c1-c1ccc(S(N)(=O)=O)cc1 [valdecoxib],potency at inhibiting COX-2 relative to COX-1,about 300 times
